# Biological target: Sodium-dependent dopamine transporter (Rattus norvegicus, UniProt P23977)
# Sequences of proteins named here, by UniProt entry; tags and fusion partners are left off.
# UniProt P23977, whole entry: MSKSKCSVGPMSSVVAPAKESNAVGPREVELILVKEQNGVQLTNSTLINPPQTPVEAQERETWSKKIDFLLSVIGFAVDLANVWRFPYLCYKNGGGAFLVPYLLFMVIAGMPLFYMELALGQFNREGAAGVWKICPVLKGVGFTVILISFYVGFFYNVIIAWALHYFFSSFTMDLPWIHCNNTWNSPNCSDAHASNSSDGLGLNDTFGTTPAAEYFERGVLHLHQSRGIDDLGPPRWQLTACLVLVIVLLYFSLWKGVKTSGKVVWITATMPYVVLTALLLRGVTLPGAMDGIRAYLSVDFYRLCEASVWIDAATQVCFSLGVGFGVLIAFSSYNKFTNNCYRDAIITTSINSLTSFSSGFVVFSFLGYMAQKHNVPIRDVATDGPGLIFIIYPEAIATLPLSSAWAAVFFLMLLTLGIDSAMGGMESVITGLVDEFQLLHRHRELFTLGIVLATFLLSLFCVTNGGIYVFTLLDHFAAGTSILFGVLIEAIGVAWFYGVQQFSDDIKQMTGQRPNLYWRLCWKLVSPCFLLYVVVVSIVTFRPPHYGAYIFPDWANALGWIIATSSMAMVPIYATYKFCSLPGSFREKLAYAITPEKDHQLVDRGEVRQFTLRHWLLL
# Assay: Binding affinity towards Dopamine transporter by displacement of [3H]WIN-35428 radioligand from rat brain
row,Structure (SMILES),IC50 [nM]
1,Cc1noc(C2C3CC[C@H](C[C@@H]2c2ccc(Cl)cc2)N3C)n1 (some centres not stated),4.05
2,COC(=O)C1C2CC[C@H](C[C@@H]1c1ccc(Cl)cc1)N2C (some centres not stated),1.12

# From ChEMBL document CHEMBL1127054, “3-Aryl-2-(3'-substituted-1',2',4'-oxadiazol-5'-yl)tropane analogues of cocaine: affinities at the cocaine binding site at the dopamine, serotonin, and norepinephrine transporters” (J Med Chem, 1993)
